Laboratory results reported in PMC7918612, “Novel Inhibitors of Nicotinamide-N-Methyltransferase for the Treatment of Metabolic Disorders” (Molecules, 2021).

Chains of the proteins cited; added tags and fusions are not shown.
UniProt P40261, whole entry: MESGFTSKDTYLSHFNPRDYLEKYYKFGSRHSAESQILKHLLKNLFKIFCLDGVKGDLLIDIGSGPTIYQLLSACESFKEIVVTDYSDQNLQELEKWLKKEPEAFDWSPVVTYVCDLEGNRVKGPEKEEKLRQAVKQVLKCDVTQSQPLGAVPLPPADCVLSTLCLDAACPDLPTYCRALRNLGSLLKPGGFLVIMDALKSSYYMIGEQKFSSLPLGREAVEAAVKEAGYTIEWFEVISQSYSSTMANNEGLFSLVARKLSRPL
UniProt O55239, whole entry: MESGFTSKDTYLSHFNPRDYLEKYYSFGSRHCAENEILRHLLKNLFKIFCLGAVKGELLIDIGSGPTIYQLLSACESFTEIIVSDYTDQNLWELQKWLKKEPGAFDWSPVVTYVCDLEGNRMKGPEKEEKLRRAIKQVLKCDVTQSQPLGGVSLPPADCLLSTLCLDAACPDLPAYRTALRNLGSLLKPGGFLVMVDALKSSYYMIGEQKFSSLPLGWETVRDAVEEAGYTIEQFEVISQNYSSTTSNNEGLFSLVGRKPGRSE

Tests used:
[1] = Metabolic stability in rat liver microsomes
human NNMT = human NNMT (Homo sapiens, UniProt P40261); test: Fluorescence-based NNMT enzymatic assay (human enzyme); details: read-out: hNNMT IC50
Description: (§1) Experimental Procedures S2: Fluorescence-based NNMT enzymatic assay
(§2) NNMT activity was measured by fluorescence based assay. The product MNA formed in the reaction reacts with acetophenone in the presence of KOH and formic acid and forms a fluorescent product 2, 7- naphthyridine. The fluorescence intensity measured with excitation at 375nm and emission at 430nm. Inhibitors were screened using human, mouse and monkey NNMT enzymes. Different concentrations of inhibitors were pre-incubated along with 5ng/well of human NNMT enzyme and 3.42ng/well of mouse NNMT enzyme for 30 minutes at room temperature. Reaction was initiated by addition of SAM and nicotinamide mixture (7µM, 20µM, 8µM SAM and 6µM, 20µM, 9µM nicotinamide for human, mouse and monkey NNMT assays respectively) and incubated for 60 minutes at 37°C. The final assay reaction mixture contained a buffer of 100mM Tris Hcl pH 7.5, 0.04% BSA, 2mM Dithiothreitol and 1% DMSO. The reaction was terminated by addition of Ethanol: Acetophenone mix (75% ethanol: 25% Acetophenone) and 5M potassium Hydroxide prepared with 50% Ethanol. […] A fluorescent product 2, 7- naphthyridine was measured in a Tecan reader with excitation at 375nm and emission at 430nm. The IC50 values were determined by fitting the inhibition curves (percent inhibition versus inhibitor concentration) using a four parametric sigmoidal dose response in graph pad prism. […]

mouse NNMT = mouse NNMT (Mus musculus, UniProt O55239); test: Fluorescence-based NNMT enzymatic assay (mouse enzyme)
Description: as §1, §2

[2] = Metabolic stability in human liver microsomes
Description: (§3) Experimental Procedures S3: Metabolic stability in human and mouse liver microsomes
(§4) These profiling studies were carried out as described in Mullangi R. et. al. Preclinical assessment of
(§5) ulixertinib, a novel ERK1/2 inhibitor, ADMET & DMPK, 2017, 212-223;

[3] = Metabolic stability in mouse liver microsomes
Description: as §3, §4, §5

Cc1nn(CC(C)(O)C(=O)N2CCN(c3cccc4cnccc34)CC2)cc1-c1cccc(F)c1 (racemic)
RLM % Remaining at 1 h [1]: < 5% | IC50 (human NNMT): 0.3 µM | IC50 (mouse NNMT; read-out: mNNMT IC50): 0.44 µM | increase in mNNMT enzymatic potency (mouse NNMT; relative to (1)): two-fold increase | HLM % Remaining at 1 h [2]: 30% | MLM % Remaining at 1 h [3]: < 5%
